## Binding of CDR-mutated scFvs to a peptide of the spike HR2 region

All variants were tested on one target, the spike HR2 peptide PDVDLGDISGINAS (SARS-CoV-2).

Ab-14 is the parent antibody, in scFv form: VH, then three GGGGS repeats, then VL. The light chain is unchanged in all variants.
VH: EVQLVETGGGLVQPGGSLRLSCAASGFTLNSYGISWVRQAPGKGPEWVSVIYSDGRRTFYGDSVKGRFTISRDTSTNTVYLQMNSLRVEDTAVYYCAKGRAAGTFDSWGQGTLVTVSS
VL: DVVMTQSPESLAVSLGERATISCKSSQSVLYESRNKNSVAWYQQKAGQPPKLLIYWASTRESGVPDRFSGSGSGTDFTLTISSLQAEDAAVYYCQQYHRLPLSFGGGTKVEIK

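The parent was found by panning a naive human phage display library on the peptide. The variants were designed computationally from a first round of random CDR variants and then made and measured. Group labels follow the data file (Ctrl: baseline library sampled from a position-specific scoring matrix, with some repeated check sequences; GPLM: also part of the Gaussian process libraries; Gen: genetic algorithm; a sequence that several methods proposed may carry one label only). Affinity was read by AlphaSeq, a pooled yeast mating assay with surface-displayed partners. Binding brings cells together so that they mate, and sequencing counts the barcode pairs among the diploids. Each replicate has its own calibration line, from reference interactions of the BCL2 family. Mating was done six times.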

Substitutions are numbered in sequence along the VH above, starting at 1 (not Kabat). The read-out is the apparent dissociation constant on a log10 scale (nM): the lower, the stronger. Averages over replicates are reported, and they cover detected replicates only. "ND" means that the variant was in the library but no mating with the target was seen in that replicate; the authors take this as a sign of poor binding, and no number exists. The authors' rule: three or more of the six replicates give a measured affinity, fewer mean a poor binder.

For Y60S G61H G99W [Ctrl], the assay gave ND, ND, ND, ND, ND, ND (controls 0 of 18).
For T28S G61A A101N [Ctrl+GPLM_Gen], the assay gave 0.12, 0.13, 0.14, -0.57, 0.36, 0.25; 0.33, 0.44, 0.38, 0.26, 0.22, 0.38 (mean 0.20; controls 0 of 36).
For R56L S63D G99R R100S [Ctrl], the assay gave ND, ND, ND, ND, ND, ND (controls 1 of 18).
For G61T S63D A101I F105P [Ctrl], the assay gave ND, ND, ND, ND, ND, ND (controls 0 of 18).
For L29I S63A [Ctrl], the assay gave -0.37, 0.14, -0.56, -0.62, -0.50, 0.34 (mean -0.26; controls 0 of 18).
For N30D S31D R56I R100E [Ctrl], the assay gave 0.79, 1.37, 0.82, 1.17, 1.74, 1.31 (mean 1.20; controls 0 of 18).
For N30M G61L D62W R100E G103Q D106P [Ctrl], the assay gave ND, ND, ND, ND, ND, ND (controls 0 of 18).
For A102T F105D [Ctrl], the assay gave ND, ND, ND, ND, ND, ND (controls 0 of 18).
For T28W N30L G99D R100I F105K S107Y [Ctrl], the assay gave ND, ND, ND, ND, ND, ND (controls 0 of 18).
For G61A S63F S107Y [Ctrl], the assay gave ND, ND, ND, 1.42, ND, 1.36 (mean 1.39; controls 0 of 18).
For T28R S107Q [Ctrl], the assay gave ND, ND, ND, ND, ND, ND (controls 1 of 18).
For S63A T104Y [Ctrl], the assay gave ND, 1.74, ND, 1.65, 2.67, ND (mean 2.02; controls 0 of 18).
For N30A F59M G61I V64T R100G [Ctrl], the assay gave ND, ND, ND, ND, ND, ND (controls 0 of 18).
For S31N G103V T104I [Ctrl], the assay gave ND, ND, ND, ND, ND, ND (controls 0 of 18).
For T28K D106I [Ctrl], the assay gave ND, ND, ND, ND, ND, ND (controls 0 of 18).
For F27A F59A A102C [Ctrl], the assay gave ND, ND, ND, ND, ND, ND (controls 1 of 18).
For R56H G61E A101W [Ctrl], the assay gave ND, ND, ND, ND, ND, ND (controls 0 of 18).
For R56K T104P [Ctrl], the assay gave 1.17, 2.03, ND, 2.49, 2.42, 3.29 (mean 2.28; controls 0 of 18).
For F27Y S31D T104L [Ctrl], the assay gave ND, ND, ND, ND, ND, ND (controls 0 of 18).
For S53F A101E S107L [Ctrl], the assay gave 0.88, ND, ND, ND, ND, ND (controls 0 of 18).
For L29I Y32A G61S [Ctrl], the assay gave ND, ND, ND, ND, ND, ND (controls 0 of 18).
For G61K A101N [Ctrl], the assay gave 1.66, 0.97, ND, ND, ND, 2.13 (mean 1.59; controls 0 of 18).
For N30G S31E R100Q [Ctrl], the assay gave 0.69, 0.65, 0.77, 1.18, 0.87, 0.97 (mean 0.85; controls 0 of 18).
For R56Y R100Q F105M [Ctrl], the assay gave ND, ND, 1.17, 1.66, 2.67, 1.44 (mean 1.73; controls 1 of 18).
For T28S G61T S63D [Ctrl], the assay gave -0.91, -1.39, -0.50, 0.00, -1.29, 0.25 (mean -0.64; controls 0 of 18).
For R56E T58K A101S [Ctrl], the assay gave 0.72, 0.05, 0.35, 0.66, 0.79, 0.42 (mean 0.50; controls 0 of 18).
For G61S R100H S107T [Ctrl+GPLM_Gen], the assay gave 3.16, 0.82, 1.31, 0.41, 1.09, 0.93; 0.90, 0.06, 0.46, 0.94, -0.04, 0.61 (mean 0.89; controls 0 of 36).
For F27R S53L [Ctrl], the assay gave ND, ND, ND, ND, ND, ND (controls 0 of 18).
For Y60M R100Q G103F S107Q [Ctrl], the assay gave ND, ND, ND, ND, ND, ND (controls 0 of 18).
For S31Q R56E A101N A102C [Ctrl], the assay gave ND, ND, ND, ND, ND, ND (controls 0 of 18).
For T28K S31E R100E [Ctrl], the assay gave -0.16, 0.08, 0.27, -0.03, -0.15, 0.28 (mean 0.05; controls 0 of 18).
For T28P A102M [Ctrl], the assay gave ND, ND, ND, ND, ND, 2.60 (controls 0 of 18).
For T28A N30D A101V [Ctrl], the assay gave 0.86, 0.75, 0.09, 0.61, 0.10, 0.42 (mean 0.47; controls 1 of 18).
For T28S A102R T104V [Ctrl], the assay gave 0.68, 0.37, 0.14, 0.22, 0.48, 0.72 (mean 0.43; controls 0 of 18).
For N30D G61A D62G S107F [Ctrl], the assay gave 2.28, ND, 2.53, 2.22, 2.54, 2.89 (mean 2.49; controls 0 of 18).
For T28E G103H [Ctrl], the assay gave ND, ND, ND, ND, ND, ND (controls 0 of 18).
For N30E A101E T104A [Ctrl], the assay gave 1.20, 1.61, 2.38, 1.40, 1.68, ND (mean 1.65; controls 0 of 18).
For N30Q Y60I G99V A101L A102K G103T [Ctrl], the assay gave ND, ND, ND, ND, ND, ND (controls 0 of 18).
For T58V G61E A101E G103L F105T D106S [Ctrl], the assay gave ND, ND, ND, ND, ND, ND (controls 1 of 18).
For T28S S31E S53A F59M G61I [Ctrl], the assay gave -0.17, -0.48, -0.60, -0.42, -0.62, -0.29 (mean -0.43; controls 0 of 18).
For T28S N30E G61E S107Q [Ctrl], the assay gave 1.75, 0.56, 2.29, 0.33, 0.26, 2.04 (mean 1.20; controls 0 of 18).
For L29V S31E [Ctrl], the assay gave 1.06, 1.12, 1.10, 1.77, 0.86, 1.21 (mean 1.19; controls 0 of 18).
For T28H S31K T104F [Ctrl], the assay gave ND, ND, ND, ND, ND, ND (controls 0 of 18).
For F27H S31E R56L G61I R100E S107V [Ctrl], the assay gave 2.51, 1.91, 1.82, ND, 1.80, 2.30 (mean 2.07; controls 0 of 18).
For T28G G99W [Ctrl], the assay gave ND, ND, ND, ND, ND, ND (controls 0 of 18).
For F59A G61N A101V [Ctrl], the assay gave 1.10, 0.71, 0.63, 0.66, 1.00, 1.01 (mean 0.85; controls 2 of 18).
For N30L R100G [Ctrl], the assay gave 1.50, 0.99, 0.38, 1.93, 0.56, 0.34 (mean 0.95; controls 1 of 18).
For R100M T104C S107L [Ctrl], the assay gave ND, ND, ND, ND, ND, ND (controls 0 of 18).
For R56L S63Q R100W A102K F105S D106N [Ctrl], the assay gave ND, ND, ND, ND, ND, ND (controls 0 of 18).
For S31M F105A D106H [Ctrl], the assay gave ND, ND, ND, ND, ND, ND (controls 0 of 18).

Top 3 of the variants detected in all replicates, tightest first:

{"changes": "T28S G61T S63D", "group": "Ctrl", "replicates, log10 nM": "-0.91, -1.39, -0.50, 0.00, -1.29, 0.25", "mean, log10 nM": "-0.64", "empty controls": "0/18"}
{"changes": "T28S S31E S53A F59M G61I", "group": "Ctrl", "replicates, log10 nM": "-0.17, -0.48, -0.60, -0.42, -0.62, -0.29", "mean, log10 nM": "-0.43", "empty controls": "0/18"}
{"changes": "L29I S63A", "group": "Ctrl", "replicates, log10 nM": "-0.37, 0.14, -0.56, -0.62, -0.50, 0.34", "mean, log10 nM": "-0.26", "empty controls": "0/18"}

A sequence that the file lists under several names has all its replicates listed entry by entry, parted by semicolons. A sequence measured in both rounds can read differently, since the two assays cover different ranges. The parent sequence was in this pool as ten entries: three were never detected, three once, and four in most replicates, with averages from 0.34 to 2.37. Background: pairings of all heavy chain designs with three empty control strains gave a value in 1% of cases (median 2.08, 5th percentile 0.84). Values in that range, when seen in few replicates, are hard to tell from nonspecific mating. Also given: how often the same scFv was detected with the empty control strains.

Data: MIT Lincoln Laboratory AlphaSeq set, Li et al. 2023, doi:10.1038/s41467-023-39022-2, as distributed in FLAb.